Reference: patent US12173004B2, “Pharmaceutical compositions comprising heterocycle fused gamma carboline prodrugs” (INTRA-CELLULAR THERAPIES, INC., priority 2017, dated 2024)

Columns and labels:
[1] = molecular target: 5-HT2A (Homo sapiens (Human), UniProt P28223); conditions: read-out: Ki (nM) 5-HT2A
[2] = molecular target: SERT (Homo sapiens (Human), UniProt P31645); assay: biochemical; conditions: read-out: maximum inhibition SERT
[3] = mouse, in vivo, sc, 0.1 mg/kg
[4] = in vivo; conditions: mouse

O=C1CN2c3c(cccc3[C@@H]3CN(CCCC(=O)c4ccc(F)cc4)CC[C@@H]32)N1 [Example 1]
Ki [1]: 11 nM | inhibition at 0.24 µM [2]: 44%

O=C1CN2c3c(cccc3[C@@H]3CN(CCCOc4ccc(F)cc4)CC[C@@H]32)N1 [Example 2, (6bR,10aS)-8-(3-(4-fluorophenoxy)propyl)-6b,7,8,9,10,10a-hexahydro-1H-pyrido[3′,4′:4,5]pyrrolo[1,2,3-de]quinoxalin-2(3H)-one]
Plasma (ng/mL), 4 hr [3]: 4.7 ng/mL | AUC(0-t) ([4]; brain, po, 10 mg/kg): 2490 ng·h/mL | AUC(0-t) ([4]; brain, sc, 0.1 mg/kg): 191 ng·h/mL | AUC(0-t) ([4]; plasma, sc, 0.1 mg/kg): 67 ng·h/mL | Cmax ([4]; plasma, sc, 0.1 mg/kg): 31.1 ng/mL
